Reference: US4479951A, “1.4;3.6-Dianhydrohexitol nitrates substituted by purine bases, processes for their preparation and pharmaceutical compositions” (Dr. Willmar Schwabe GmbH & Co., priority 1980, dated 1984)

Tested on: mongrel dogs
Assay: circulatory-pharmacological effectiveness on the narcotised dog, intravenous administration
Type: in vivo

With `O=[N+]([O-])O[C@H]1CO[C@H]2[C@@H]1OC[C@H]2O[N+](=O)[O-]` the “APdiast: diastolic aorta pressure” value (2 min after i.v. 1 mg/kg) was 99.4 mm.Hg, the “APsyst: systolic aorta pressure” value (2 min after i.v. 1 mg/kg) was 145.7 mm.Hg and the “BFFem: blood flow in the A. femoralis, referred to 20 kg. body weight” value (shortened to “BFFem: blood flow in the A. femoralis”) (2 min after i.v. 1 mg/kg) was 31.2 mL/min. For the same compound, the “HF: heart frequency” value (2 min after i.v. 1 mg/kg) was 143.7 min⁻¹, the “HLL: heart capacity left, referred to 20 kg. body weight” value (from here on “HLL: heart capacity left, referred”) (2 min after i.v. 1 mg/kg) was 0.94 W and the “HLR: heart capacity right, referred to 20 kg. body weight” value (“HLR: heart capacity right, referred” below) (2 min after i.v. 1 mg/kg) was 85.3 mW. The “HZV: heart minute volume, referred to 20 kg. body weight” value (“HZV: heart minute volume, referred” below) (2 min after i.v. 1 mg/kg) was 3.8 min⁻¹, the “LVEDP: end diastolic pressure in the left ventricle” value (shortened to “LVEDP: end diastolic pressure”) (2 min after i.v. 1 mg/kg) was 4.97 mm.Hg and the “PAP: average pressure in the A. pulmonalis” value (“PAP: average pressure” below) (2 min after i.v. 1 mg/kg) was 11.1 ±0.7 mm.Hg. The “PRA: pressure in the right atrium” value (2 min after i.v. 1 mg/kg) was 1.12 mm.Hg, the “SV: beat volume, referred to 20 kg. body weight” value (“SV: beat volume, referred” for short) (2 min after i.v. 1 mg/kg) was 26.3 mL and the “WAP: pulmonalis resistance, referred to 20 kg. body weight” value (shortened to “WAP: pulmonalis resistance, referred”) (2 min after i.v. 1 mg/kg) was 0.23 U. The “WFem: femoralis resistance, referred to 20 kg. body weight” value (shortened to “WFem: femoralis resistance, referred”) (2 min after i.v. 1 mg/kg) was 0.55 KU, the “WTP: total peripheral resistance, referred to 20 kg. body weight” value (shortened to “WTP: total peripheral resistance”) (2 min after i.v. 1 mg/kg) was 4.02 U and the “dp/dt: rate of pressure increase in the left ventricle” value (“dp/dt: rate of pressure increase” for short) (2 min after i.v. 1 mg/kg) was 2868.7 mm.Hg/sec. For the same compound, the “APdiast: diastolic aorta pressure” value (5 min after i.v. 1 mg/kg) was 102.2 mm.Hg, the “APsyst: systolic aorta pressure” value (5 min after i.v. 1 mg/kg) was 152.9 mm.Hg and the “BFFem: blood flow in the A. femoralis” value (5 min after i.v. 1 mg/kg) was 35.4 mL/min. For the same compound, the “HF: heart frequency” value (5 min after i.v. 1 mg/kg) was 133.5 min⁻¹, the “HLL: heart capacity left, referred” value (5 min after i.v. 1 mg/kg) was 0.95 W and the “HLR: heart capacity right, referred” value (5 min after i.v. 1 mg/kg) was 81.4 mW. The “HZV: heart minute volume, referred” value (5 min after i.v. 1 mg/kg) was 3.7 min⁻¹, the “LVEDP: end diastolic pressure” value (5 min after i.v. 1 mg/kg) was 5.81 mm.Hg and the “PAP: average pressure” value (5 min after i.v. 1 mg/kg) was 11.5 ±0.8 mm.Hg. For the same compound, the “PRA: pressure in the right atrium” value (5 min after i.v. 1 mg/kg) was 1.72 mm.Hg, the “SV: beat volume, referred” value (5 min after i.v. 1 mg/kg) was 27.4 mL and the “WAP: pulmonalis resistance, referred” value (5 min after i.v. 1 mg/kg) was 0.22 U. For the same compound, the “WFem: femoralis resistance, referred” value (5 min after i.v. 1 mg/kg) was 0.49 KU, the “WTP: total peripheral resistance” value (5 min after i.v. 1 mg/kg) was 4.39 U and the “dp/dt: rate of pressure increase” value (5 min after i.v. 1 mg/kg) was 2606.2 mm.Hg/sec. For the same compound, the “APdiast: diastolic aorta pressure” value (7 min after i.v. 1 mg/kg) was 100.3 mm.Hg, the “APsyst: systolic aorta pressure” value (7 min after i.v. 1 mg/kg) was 152.9 mm.Hg and the “BFFem: blood flow in the A. femoralis” value (7 min after i.v. 1 mg/kg) was 37.3 mL/min. The “HF: heart frequency” value (7 min after i.v. 1 mg/kg) was 128.7 min⁻¹, the “HLL: heart capacity left, referred” value (7 min after i.v. 1 mg/kg) was 0.85 W and the “HLR: heart capacity right, referred” value (7 min after i.v. 1 mg/kg) was 83.0 mW. The “HZV: heart minute volume, referred” value (7 min after i.v. 1 mg/kg) was 3.3 min⁻¹, the “LVEDP: end diastolic pressure” value (7 min after i.v. 1 mg/kg) was 6.0 mm.Hg and the “PAP: average pressure” value (7 min after i.v. 1 mg/kg) was 12.6 ±1.4 mm.Hg. For the same compound, the “PRA: pressure in the right atrium” value (7 min after i.v. 1 mg/kg) was 1.78 mm.Hg, the “SV: beat volume, referred” value (7 min after i.v. 1 mg/kg) was 25.9 mL and the “WAP: pulmonalis resistance, referred” value (7 min after i.v. 1 mg/kg) was 0.27 U. For the same compound, the “WFem: femoralis resistance, referred” value (7 min after i.v. 1 mg/kg) was 0.45 KU, the “WTP: total peripheral resistance” value (7 min after i.v. 1 mg/kg) was 4.72 U and the “dp/dt: rate of pressure increase” value (7 min after i.v. 1 mg/kg) was 2587.5 mm.Hg/sec. For the same compound, the “APdiast: diastolic aorta pressure” value (10 min after i.v. 1 mg/kg) was 98.4 mm.Hg, the “APsyst: systolic aorta pressure” value (10 min after i.v. 1 mg/kg) was 152.9 mm.Hg and the “BFFem: blood flow in the A. femoralis” value (10 min after i.v. 1 mg/kg) was 38.4 mL/min. The “HF: heart frequency” value (10 min after i.v. 1 mg/kg) was 121.7 min⁻¹, the “HLL: heart capacity left, referred” value (10 min after i.v. 1 mg/kg) was 0.84 W and the “HLR: heart capacity right, referred” value (10 min after i.v. 1 mg/kg) was 82.4 mW. The “HZV: heart minute volume, referred” value (10 min after i.v. 1 mg/kg) was 3.4 min⁻¹, the “LVEDP: end diastolic pressure” value (10 min after i.v. 1 mg/kg) was 6.28 mm.Hg and the “PAP: average pressure” value (10 min after i.v. 1 mg/kg) was 12.6 ±1.4 mm.Hg. For the same compound, the “PRA: pressure in the right atrium” value (10 min after i.v. 1 mg/kg) was 1.87 mm.Hg, the “SV: beat volume, referred” value (10 min after i.v. 1 mg/kg) was 27.4 mL and the “WAP: pulmonalis resistance, referred” value (10 min after i.v. 1 mg/kg) was 0.26 U. The “WFem: femoralis resistance, referred” value (10 min after i.v. 1 mg/kg) was 0.42 KU, the “WTP: total peripheral resistance” value (10 min after i.v. 1 mg/kg) was 4.66 U and the “dp/dt: rate of pressure increase” value (10 min after i.v. 1 mg/kg) was 2550.0 mm.Hg/sec. For the same compound, the “APdiast: diastolic aorta pressure” value (15 min after i.v. 1 mg/kg) was 98.4 mm.Hg, the “APsyst: systolic aorta pressure” value (15 min after i.v. 1 mg/kg) was 154.8 mm.Hg and the “BFFem: blood flow in the A. femoralis” value (15 min after i.v. 1 mg/kg) was 40.9 mL/min. The “HF: heart frequency” value (15 min after i.v. 1 mg/kg) was 118.2 min⁻¹, the “HLL: heart capacity left, referred” value (15 min after i.v. 1 mg/kg) was 0.79 W and the “HLR: heart capacity right, referred” value (15 min after i.v. 1 mg/kg) was 78.9 mW. The “HZV: heart minute volume, referred” value (15 min after i.v. 1 mg/kg) was 3.2 min⁻¹, the “LVEDP: end diastolic pressure” value (15 min after i.v. 1 mg/kg) was 6.47 mm.Hg and the “PAP: average pressure” value (15 min after i.v. 1 mg/kg) was 12.7 ±1.6 mm.Hg. For the same compound, the “PRA: pressure in the right atrium” value (15 min after i.v. 1 mg/kg) was 1.97 mm.Hg, the “SV: beat volume, referred” value (15 min after i.v. 1 mg/kg) was 26.8 mL and the “WAP: pulmonalis resistance, referred” value (15 min after i.v. 1 mg/kg) was 0.26 U. The “WFem: femoralis resistance, referred” value (15 min after i.v. 1 mg/kg) was 0.41 KU, the “WTP: total peripheral resistance” value (15 min after i.v. 1 mg/kg) was 4.96 U and the “dp/dt: rate of pressure increase” value (15 min after i.v. 1 mg/kg) was 2512.5 mm.Hg/sec. The “APdiast: diastolic aorta pressure” value (20 min after i.v. 1 mg/kg) was 96.6 mm.Hg, the “APsyst: systolic aorta pressure” value (20 min after i.v. 1 mg/kg) was 154.8 mm.Hg and the “BFFem: blood flow in the A. femoralis” value (20 min after i.v. 1 mg/kg) was 40.9 mL/min. For the same compound, the “HF: heart frequency” value (20 min after i.v. 1 mg/kg) was 112.5 min⁻¹, the “HLL: heart capacity left, referred” value (20 min after i.v. 1 mg/kg) was 0.78 W and the “HLR: heart capacity right, referred” value (20 min after i.v. 1 mg/kg) was 75.3 mW. The “HZV: heart minute volume, referred” value (20 min after i.v. 1 mg/kg) was 3.1 min⁻¹, the “LVEDP: end diastolic pressure” value (20 min after i.v. 1 mg/kg) was 6.75 mm.Hg and the “PAP: average pressure” value (20 min after i.v. 1 mg/kg) was 12.6 ±1.3 mm.Hg. The “PRA: pressure in the right atrium” value (20 min after i.v. 1 mg/kg) was 2.15 mm.Hg, the “SV: beat volume, referred” value (20 min after i.v. 1 mg/kg) was 27.9 mL and the “WAP: pulmonalis resistance, referred” value (20 min after i.v. 1 mg/kg) was 0.25 U. For the same compound, the “WFem: femoralis resistance, referred” value (20 min after i.v. 1 mg/kg) was 0.40 KU, the “WTP: total peripheral resistance” value (20 min after i.v. 1 mg/kg) was 4.92 U and the “dp/dt: rate of pressure increase” value (20 min after i.v. 1 mg/kg) was 2418.7 mm.Hg/sec. For the same compound, the “APdiast: diastolic aorta pressure” value (25 min after i.v. 1 mg/kg) was 98.4 mm.Hg, the “APsyst: systolic aorta pressure” value (25 min after i.v. 1 mg/kg) was 156.6 mm.Hg and the “BFFem: blood flow in the A. femoralis” value (25 min after i.v. 1 mg/kg) was 41.9 mL/min. For the same compound, the “HF: heart frequency” value (25 min after i.v. 1 mg/kg) was 112.0 min⁻¹, the “HLL: heart capacity left, referred” value (25 min after i.v. 1 mg/kg) was 0.76 W and the “HLR: heart capacity right, referred” value (25 min after i.v. 1 mg/kg) was 76.3 mW. For the same compound, the “HZV: heart minute volume, referred” value (25 min after i.v. 1 mg/kg) was 3.0 min⁻¹, the “LVEDP: end diastolic pressure” value (25 min after i.v. 1 mg/kg) was 7.03 mm.Hg and the “PAP: average pressure” value (25 min after i.v. 1 mg/kg) was 13.3 ±1.5 mm.Hg. For the same compound, the “PRA: pressure in the right atrium” value (25 min after i.v. 1 mg/kg) was 2.38 mm.Hg, the “SV: beat volume, referred” value (25 min after i.v. 1 mg/kg) was 26.8 mL and the “WAP: pulmonalis resistance, referred” value (25 min after i.v. 1 mg/kg) was 0.27 U. For the same compound, the “WFem: femoralis resistance, referred” value (25 min after i.v. 1 mg/kg) was 0.40 KU, the “WTP: total peripheral resistance” value (25 min after i.v. 1 mg/kg) was 5.22 U and the “dp/dt: rate of pressure increase” value (25 min after i.v. 1 mg/kg) was 2456.2 mm.Hg/sec. For the same compound, the “APdiast: diastolic aorta pressure” value (30 min after i.v. 1 mg/kg) was 98.1 mm.Hg, the “APsyst: systolic aorta pressure” value (30 min after i.v. 1 mg/kg) was 155.6 mm.Hg and the “BFFem: blood flow in the A. femoralis” value (30 min after i.v. 1 mg/kg) was 41.5 mL/min. For the same compound, the “HF: heart frequency” value (30 min after i.v. 1 mg/kg) was 110.0 min⁻¹, the “HLL: heart capacity left, referred” value (30 min after i.v. 1 mg/kg) was 0.76 W and the “HLR: heart capacity right, referred” value (30 min after i.v. 1 mg/kg) was 78.6 mW. For the same compound, the “HZV: heart minute volume, referred” value (30 min after i.v. 1 mg/kg) was 3.0 min⁻¹, the “LVEDP: end diastolic pressure” value (30 min after i.v. 1 mg/kg) was 7.22 mm.Hg and the “PAP: average pressure” value (30 min after i.v. 1 mg/kg) was 13.5 ±1.5 mm.Hg. For the same compound, the “PRA: pressure in the right atrium” value (30 min after i.v. 1 mg/kg) was 2.34 mm.Hg, the “SV: beat volume, referred” value (30 min after i.v. 1 mg/kg) was 27.8 mL and the “WAP: pulmonalis resistance, referred” value (30 min after i.v. 1 mg/kg) was 0.27 U. The “WFem: femoralis resistance, referred” value (30 min after i.v. 1 mg/kg) was 0.40 KU, the “WTP: total peripheral resistance” value (30 min after i.v. 1 mg/kg) was 5.13 U and the “dp/dt: rate of pressure increase” value (30 min after i.v. 1 mg/kg) was 2390.6 mm.Hg/sec.
